Results: patent US20250057913A1, “USE OF SOMATOSTATIN AGONIST IN THE TREATMENT OF SSTR3 EXPRESSING TUMORS” (ITALFARMACO SPA, priority 2021, published 2025)

Amino acid sequences for entries named in this document (tags omitted). A change or cut given only in a name is not applied to a line headed by its entry.
UniProt P61278: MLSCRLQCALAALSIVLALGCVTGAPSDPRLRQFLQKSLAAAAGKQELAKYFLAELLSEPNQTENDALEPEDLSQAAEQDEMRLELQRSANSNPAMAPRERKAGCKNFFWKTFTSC

Tests used:
[1] = molecular target: wild-type hSSTR2 stably expressed in HEK293 cells (human) (UniProt P30874)
[2] = molecular target: wild-type hSSTR3 stably expressed in HEK293 cells (human) (UniProt P32745)
[3] = molecular target: wild-type hSSTR5 stably expressed in HEK293 cells (human) (UniProt P35346)

SST14 (from UniProt P61278) (ligand) was tested, and the Compound activity (EC50 nM), GIRK membrane potential assay [1] was 0.4 nM, the Compound activity (EC50 nM), GIRK membrane potential assay [2] was 0.8 nM and the Compound activity (EC50 nM), GIRK membrane potential assay [3] was 0.5 nM.
